In ChEMBL document CHEMBL1146020, “Phosphonothioate and fluoromethylene phosphonate analogues of cyclic phosphatidic acid: Novel antagonists of lysophosphatidic acid receptors” (2006) one finds Activity, inhibition and Emax data, which are given here for three molecules.

Protein sequences, listed by entry. Tags and fused reporters are not part of them. Lines headed by an entry give the natural chain unless they say otherwise; changes in a name come on top.
UniProt Q92633: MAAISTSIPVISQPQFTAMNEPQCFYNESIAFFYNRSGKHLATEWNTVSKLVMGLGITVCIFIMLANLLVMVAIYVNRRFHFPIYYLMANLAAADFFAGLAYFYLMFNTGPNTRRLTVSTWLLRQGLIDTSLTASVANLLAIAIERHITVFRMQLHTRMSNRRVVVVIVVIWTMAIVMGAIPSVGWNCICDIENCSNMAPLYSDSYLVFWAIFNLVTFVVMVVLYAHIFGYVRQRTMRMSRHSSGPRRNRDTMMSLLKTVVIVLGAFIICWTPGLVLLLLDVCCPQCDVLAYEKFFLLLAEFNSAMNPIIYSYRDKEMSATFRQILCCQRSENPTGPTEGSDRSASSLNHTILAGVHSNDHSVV
UniProt Q9HBW0, whole entry, looked up: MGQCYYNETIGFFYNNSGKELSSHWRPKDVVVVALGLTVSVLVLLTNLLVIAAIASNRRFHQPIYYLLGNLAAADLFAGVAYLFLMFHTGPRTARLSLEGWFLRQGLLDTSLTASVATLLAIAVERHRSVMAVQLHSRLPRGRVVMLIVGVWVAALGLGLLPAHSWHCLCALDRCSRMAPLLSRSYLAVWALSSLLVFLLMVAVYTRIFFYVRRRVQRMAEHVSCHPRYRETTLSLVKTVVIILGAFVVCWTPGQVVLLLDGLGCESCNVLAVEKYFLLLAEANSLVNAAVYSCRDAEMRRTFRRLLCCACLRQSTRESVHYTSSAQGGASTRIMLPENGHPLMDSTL

As a reminder, the inhibition is the share of the control response that was lost under treatment. As a reminder, the Emax is the maximal effect, on the per cent scale that the assay sets.

Each structure is given as a SMILES string.

Assay [1] has as its target Lysophosphatidic acid receptor 1 (Homo sapiens) (UniProt Q92633). The experiment in a line: Activity at human LPA1 receptor expressed in RH7777 cells by calcium mobilization assay. As to conditions: filed as antagonist.
For assay [2] the target is unchanged. The experiment in a line: Activity at human LPA1 receptor expressed in RH7777 cells at 30 uM relative to LPA by calcium mobilization assay. Background: A change in cytosolic calcium serves as a functional read-out for many receptors and channels.
In assay [3] the target is Lysophosphatidic acid receptor 2 (Homo sapiens) (UniProt Q9HBW0). The experiment in a line: Activity at human LPA2 receptor expressed in RH7777 cells at 30 uM relative to LPA by calcium mobilization assay.
Assay [4] has as its target T1, Lysophosphatidic acid receptor 3 (Homo sapiens) (UniProt Q9UBY5).
T1 sequence (whole entry): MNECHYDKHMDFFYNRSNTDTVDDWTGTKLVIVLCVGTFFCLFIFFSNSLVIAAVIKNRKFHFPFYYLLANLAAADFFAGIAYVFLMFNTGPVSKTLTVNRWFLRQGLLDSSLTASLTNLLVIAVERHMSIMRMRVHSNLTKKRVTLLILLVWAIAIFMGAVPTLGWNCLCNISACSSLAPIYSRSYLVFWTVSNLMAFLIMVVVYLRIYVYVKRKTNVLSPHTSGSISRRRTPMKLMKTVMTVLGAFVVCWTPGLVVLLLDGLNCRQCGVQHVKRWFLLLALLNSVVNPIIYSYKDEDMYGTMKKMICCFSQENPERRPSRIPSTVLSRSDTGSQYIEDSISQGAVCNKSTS
The experiment in a line: Activity at human LPA3 receptor expressed in RH7777 cells at 30 uM relative to LPA by calcium mobilization assay.

Take `CCCCCCCCCCCCCCCCCC(=O)OC[C@@H]1CC(F)P(=O)(O)O1` (some centres not stated): the Activity result in assay [1] is recorded as “Partial antagonist”. The inhibition in assay [2] worked out at 46%.
In the same order, the values of `CCCCCCCCCCCCCCCCCC(=O)OCC1CCP(O)(=S)O1` (configuration not stated) are “Partial antagonist” and 64%.
As to `CCCCCCCCCCCCCCCCCC(=O)OC[C@@H]1CC(F)(F)P(=O)(O)O1`, the Emax was 13% in assay [2], 82% in assay [3] and 65.4% in assay [4].
